Source: the CheMixHub viscosity set
Several values for one entry are separate records, joined by “and”; a condition that tells them apart may be missing. Identical values can stand only once.

What was measured:
[1] = xn = mol fraction of the nth substance listed

OCCOCCOCCOCCO
viscosity
Details	293.15 K	298.15 K	303.15 K	308.15 K	313.15 K	318.15 K	323.15 K
100 kPa	59.5 mPa·s	44.6 mPa·s and 44.63 mPa·s	35.5 mPa·s and 34.79 mPa·s	28.8 mPa·s and 27.72 mPa·s	–	18.32 mPa·s	15.29 mPa·s
101 kPa	–	–	–	27.89 mPa·s and 25.75 mPa·s	20.65 mPa·s	18.43 mPa·s and 16.76 mPa·s	15.35 mPa·s
101.32 kPa	–	–	–	–	22.8 mPa·s	–	–
101.33 kPa	59.5 mPa·s	44.5 mPa·s	35.2 mPa·s	–	23.1 mPa·s	–	–

OCCOCCOCCOCCO + CCOCCO
[1], 101 kPa
Details	viscosity [mPa·s]
293.15 K, x2 = 0.0502	47.89
293.15 K, x2 = 0.0969	43.09
293.15 K, x2 = 0.2063	33.37
293.15 K, x2 = 0.2971	26.66
293.15 K, x2 = 0.4006	20.22
293.15 K, x2 = 0.4466	17.75
293.15 K, x2 = 0.5031	15
293.15 K, x2 = 0.5526	12.92
293.15 K, x2 = 0.5998	11.11
293.15 K, x2 = 0.7001	7.904
293.15 K, x2 = 0.7995	5.434
293.15 K, x2 = 0.9	3.553
293.15 K, x2 = 0.95	2.792
298.15 K, x2 = 0.0686	38.73
298.15 K, x2 = 0.1055	35.94
298.15 K, x2 = 0.1983	29.37
298.15 K, x2 = 0.2962	23.47
298.15 K, x2 = 0.3972	18.27
298.15 K, x2 = 0.4507	15.9
298.15 K, x2 = 0.5008	13.91
298.15 K, x2 = 0.5475	12.21
298.15 K, x2 = 0.5997	10.48
298.15 K, x2 = 0.7	7.546
298.15 K, x2 = 0.7998	5.214
298.15 K, x2 = 0.8932	3.431
298.15 K, x2 = 0.9502	2.517
303.15 K, x2 = 0.0528	32.26
303.15 K, x2 = 0.1002	29.43
303.15 K, x2 = 0.1959	24.27
303.15 K, x2 = 0.305	19.16
303.15 K, x2 = 0.4084	14.96
303.15 K, x2 = 0.4513	13.36
303.15 K, x2 = 0.4997	11.72
303.15 K, x2 = 0.5489	10.24
303.15 K, x2 = 0.5937	9.006
303.15 K, x2 = 0.6994	6.489
303.15 K, x2 = 0.8006	4.511
303.15 K, x2 = 0.9014	2.903
303.15 K, x2 = 0.9481	2.266

OCCOCCOCCOCCO + COCCO
viscosity [mPa·s], [1], 101 kPa
Details	293.15 K	298.15 K	303.15 K
x2 = 0.0725	46.35	39.14	31.64
x2 = 0.1073	43.17	36.72	29.69
x2 = 0.1599	38.54	33.16	26.82
x2 = 0.2016	35.04	30.45	24.66
x2 = 0.2489	31.3	27.47	22.3
x2 = 0.3027	27.33	24.24	19.77
x2 = 0.3523	23.94	21.44	17.62
x2 = 0.4136	20.14	18.11	15.1
x2 = 0.4537	17.87	16.11	13.57
x2 = 0.4979	15.58	14.05	12.02
x2 = 0.5484	13.2	11.87	10.28
x2 = 0.6014	11	9.852	8.723
x2 = 0.6523	9.117	8.152	7.342
x2 = 0.6991	7.604	6.801	6.195
x2 = 0.7477	6.243	5.586	5.137
x2 = 0.7997	4.983	4.506	4.166
x2 = 0.8523	3.917	3.59	3.323
x2 = 0.892	3.214	3	2.772
x2 = 0.9486	2.372	2.235	2.067

OCCOCCOCCOCCO + CCCCOCCO
[1], 101 kPa
Details	viscosity [mPa·s]
293.15 K, x2 = 0.053	47.59
293.15 K, x2 = 0.1047	42.21
293.15 K, x2 = 0.1967	34.08
293.15 K, x2 = 0.3005	26.69
293.15 K, x2 = 0.4003	20.84
293.15 K, x2 = 0.454	18.19
293.15 K, x2 = 0.4998	16.09
293.15 K, x2 = 0.55	14.05
293.15 K, x2 = 0.595	12.39
293.15 K, x2 = 0.6961	9.19
293.15 K, x2 = 0.7962	6.79
293.15 K, x2 = 0.8953	4.815
293.15 K, x2 = 0.9473	3.981
298.15 K, x2 = 0.0496	40.08
298.15 K, x2 = 0.1032	36.04
298.15 K, x2 = 0.2034	29.22
298.15 K, x2 = 0.2967	23.75
298.15 K, x2 = 0.4007	18.65
298.15 K, x2 = 0.4492	16.58
298.15 K, x2 = 0.5	14.6
298.15 K, x2 = 0.5507	12.81
298.15 K, x2 = 0.602	11.18
298.15 K, x2 = 0.6995	8.452
298.15 K, x2 = 0.7986	6.25
298.15 K, x2 = 0.8939	4.458
298.15 K, x2 = 0.9515	3.524
303.15 K, x2 = 0.0559	32.33
303.15 K, x2 = 0.1039	29.55
303.15 K, x2 = 0.2032	24.4
303.15 K, x2 = 0.3	20.07
303.15 K, x2 = 0.4036	16.1
303.15 K, x2 = 0.4492	14.55
303.15 K, x2 = 0.4999	12.95
303.15 K, x2 = 0.5496	11.49
303.15 K, x2 = 0.5908	10.38
303.15 K, x2 = 0.6872	8.028
303.15 K, x2 = 0.7917	5.852
303.15 K, x2 = 0.8981	3.981
303.15 K, x2 = 0.9472	3.218

OCCOCCOCCOCCO + FCC(F)(F)F
viscosity [mPa·s], [1], 101.32 kPa
Details	x1 = 0.698	x1 = 0.7	x1 = 0.82	x1 = 0.821	x1 = 0.888	x1 = 0.889
293.15 K	9.94	–	21.1	–	32.9	–
313.15 K	–	4.99	–	9.21	–	13.5

OCCOCCOCCOCCO + CCCC[N+](CCCC)(CCCC)CCCC.[Br-]
[1], 101 kPa, x2 = 0.2
Details	viscosity [mPa·s]
298.15 K	94.6
303.15 K	71.9
308.15 K	56.7
313.15 K	45.3
318.15 K	36.7
323.15 K	30.5

OCCOCCOCCOCCO + C[N+](C)(C)CCO.[Cl-]
viscosity, [1], 101.33 kPa
Details	298.15 K	298.17 K	298.18 K	298.19 K	303.17 K	303.18 K	313.15 K	313.16 K	313.17 K
x1 = 0.8	78.9 mPa·s	77.65 mPa·s	–	–	–	66.67 mPa·s and 64.47 mPa·s	–	47.69 mPa·s	45.74 mPa·s
x1 = 0.9	–	–	65.41 mPa·s	66.11 mPa·s	45.01 mPa·s	54.07 mPa·s	34.99 mPa·s	45.5 mPa·s	–

OCCOCCOCCOCCO + O=S1(=O)CCCC1
[1], 303.15 K, 101 kPa
Details	viscosity [mPa·s]
x2 = 0.0511	33.89
x2 = 0.0993	32.17
x2 = 0.1997	28.58
x2 = 0.3005	25.15
x2 = 0.3969	22.22
x2 = 0.4521	20.7
x2 = 0.4986	19.51
x2 = 0.55	18.27
x2 = 0.5937	17.28
x2 = 0.6989	15.04
x2 = 0.801	13.02
x2 = 0.899	11.29
x2 = 0.9457	10.65
